This assay has as its target Nrf2-Keap1 complex (Homo sapiens, UniProt Q14145).

Chains of the proteins cited; added tags and fusions are not shown.
UniProt Q14145, whole entry: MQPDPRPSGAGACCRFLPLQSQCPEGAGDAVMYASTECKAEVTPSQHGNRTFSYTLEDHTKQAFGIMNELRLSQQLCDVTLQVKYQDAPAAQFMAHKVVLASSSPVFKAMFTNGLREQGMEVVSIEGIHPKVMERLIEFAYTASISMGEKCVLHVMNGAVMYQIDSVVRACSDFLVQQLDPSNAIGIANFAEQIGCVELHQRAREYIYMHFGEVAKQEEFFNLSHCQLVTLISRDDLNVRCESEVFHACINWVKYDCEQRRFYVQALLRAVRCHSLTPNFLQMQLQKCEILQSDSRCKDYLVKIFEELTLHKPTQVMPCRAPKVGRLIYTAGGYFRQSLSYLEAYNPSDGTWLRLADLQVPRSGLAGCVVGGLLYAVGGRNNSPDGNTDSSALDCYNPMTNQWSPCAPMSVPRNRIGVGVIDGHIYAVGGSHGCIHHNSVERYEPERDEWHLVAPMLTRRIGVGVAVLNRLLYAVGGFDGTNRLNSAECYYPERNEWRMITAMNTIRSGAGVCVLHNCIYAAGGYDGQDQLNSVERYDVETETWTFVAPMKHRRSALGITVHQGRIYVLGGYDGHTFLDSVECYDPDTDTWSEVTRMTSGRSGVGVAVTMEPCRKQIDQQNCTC

As for `CC1=C(/C=C/C(C)=C/C=C/C(C)=C/C(=O)O)C(C)(C)CCC1` [TRETINON, reference compound], the “Activation 100 nL” value was 71% and the “Activation 200 nL” value is listed as 227%. The “100 nL (luminescence)” value (Table 2, 100 nL compound, screen run at 16 and 32 μM, 3 hr) was 1816. The “200 nL (luminescence)” value (Table 2, 200 nL compound, screen run at 16 and 32 μM, 3 hr) is recorded as 3192.

The record behind these values is patent US9200046B2, “Reporter system for high throughput screening of compounds and uses thereof” (priority 2011, dated 2015).
